Our source for the IC50 values is patent US9247759B2, “Identification of human T2R receptors that respond to bitter compounds that elicit the bitter taste in compositions, and the use thereof in assays to identify compounds that inhibit (block) bitter taste in compositions and use thereof” (SENOMYX, INC., priority 2007, dated 2016).

Sequences of proteins named here, by UniProt entry; tags and fusion partners are left off. A change or cut given only in a name is not applied to a line headed by its entry.
UniProt Q9NYV8: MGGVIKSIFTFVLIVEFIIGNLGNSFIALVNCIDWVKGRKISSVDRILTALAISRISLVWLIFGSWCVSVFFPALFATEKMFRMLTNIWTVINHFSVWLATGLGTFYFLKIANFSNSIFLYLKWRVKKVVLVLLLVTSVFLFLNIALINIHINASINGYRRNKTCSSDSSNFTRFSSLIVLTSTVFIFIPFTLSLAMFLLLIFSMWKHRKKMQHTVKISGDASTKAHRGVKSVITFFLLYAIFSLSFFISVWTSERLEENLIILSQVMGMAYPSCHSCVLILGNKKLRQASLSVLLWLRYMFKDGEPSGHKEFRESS

The term IC50 denotes the concentration needed to halve the response being measured.

For this test, the target named is hT2R14 (Homo sapiens (Human), UniProt Q9NYV8). The test can be described thus: hT2R14 antagonist high-throughput FLIPR assay, stable cell line with G16g44, agonist aristolochic acid. It is filed as cell-based. As to conditions: Table C. On the procedure: The inventors also used the automated fluorimetric […] system FLIPR using a slightly different protocol. A HEK293 cell line stably expressing G16gust44 was transfected with a hT2R expression plasmid, 24 hours later, the cells are loaded and analyzed on FLIPR.
After a ligand is identified for a particular hT2R, a HEK293 cell line stably expressing both the hT2R and G16gust44 are generated, facilitating future screening assays to identify other ligands that activate the particular hT2R or which modulate (block or enhance) the activation of this hT2R by another bitter ligand such as a bitter compound contained in coffee. This avoids the need for transient transfection.
To identify antagonists, cell lines stably expressing hT2R8 and hT2R14, respectively, together with the promiscuous chimeric G16g44 protein were generated as described in previous patent applications. A high-throughput assay was established using the stable cell lines and FLIPR (Fluorescent Imaging Plate Reader). An agonist of hT2R8 or hT2R14 was used to activate the receptors up to 70-80% of their respective maximal activity. For hT2R8, the agonist used was andrographolide (200 […]); for hT2R14, it was aristolochic acid (3 μM). To identify antagonists, compounds with diverse chemical structures were added together with the agonist. […]

`O=C(O)c1ccc(CN(Cc2ccc(F)cc2)S(=O)(=O)c2ccc(O)cc2)cc1` [Example 5-107, 4-((N-(4-fluorobenzyl)-4-hydroxyphenylsulfonamido)methyl)benzoic acid] registered a concentration for half-maximal inhibition (IC50) of 4.09 µM.
